In EP3168211A1, “PHARMACEUTICAL CO-CRYSTALS OF NICLOSAMIDE” (Westfälische Wilhelms-Universität Münster, priority 2015, dated 2017):

Experiments:
[1] = for factor: equilibrium solubility relative to pristine NCL, 37°C, 24 h, 40% isopropanol-water
[2] = result in words

| factor [1] | equilibrium solubility relative to NCL-URE co-crystal ([1]; fold versus NCL-URE co-crystal) [x] | stability of the co-crystal concerning its hygroscopic behavior [2] | stability of the co-crystal ([2]; storage) | increase of the equilibrium solubility ([1]; result in words, versus pristine NCL) | Substance |
| --- | --- | --- | --- | --- | --- |
| 2.8 | 1.4 | improved | stable for many months |  | Niclosamide - 2-aminothiazole [NCL-AT] |
| 1.3 |  |  |  | moderate increase | Niclosamide - benzamide [NCL-BA] |
